Measured affinities in a library of Ab-14 heavy chain variants

From the AlphaSeq antibody data of Li et al. 2023 (doi:10.1038/s41467-023-39022-2), copy in the FLAb collection.

Binding partner: SARS-CoV-2 spike HR2 peptide, sequence PDVDLGDISGINAS.

Each scFv is VH, the linker GGGGSGGGGSGGGGS, VL, as in the parent Ab-14, and differs from it in the CDRs of the heavy chain only.
VH: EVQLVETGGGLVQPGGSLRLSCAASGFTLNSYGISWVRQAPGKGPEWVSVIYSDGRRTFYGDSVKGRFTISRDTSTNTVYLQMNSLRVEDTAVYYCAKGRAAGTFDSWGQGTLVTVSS
VL: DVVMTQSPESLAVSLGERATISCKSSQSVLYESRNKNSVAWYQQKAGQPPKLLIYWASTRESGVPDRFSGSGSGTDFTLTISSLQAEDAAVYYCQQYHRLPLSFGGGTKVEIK

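These sequences belong to a second round, designed from the earlier measurements on random variants of the parent. Group labels follow the data file (En: ensemble of fine-tuned language models; HC: hill climbing; Gen: genetic algorithm; Gibbs: Gibbs sampling; a sequence that several methods proposed may carry one label only). The scFvs were displayed on barcoded MATa yeast, the peptide on MATalpha yeast. After mating in shaken culture at 30 °C for 16 h, diploids were selected and their barcode pairs sequenced. The ratio of observed to expected reads was calibrated, replicate by replicate, on BCL2-family standards whose Kd was known from biolayer interferometry. The assay was run in six technical replicates.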

Variants are written as CDR1, CDR2 and CDR3 of the heavy chain (limits as in the source). Parent: GFTLNSYGIS, VIYSDGRRTFYGDSVK, GRAAGTFDS.
This list holds designs with more than six substitutions.
Kd is apparent (estimated from mating counts) and averaged on the log scale over replicates with a signal. Smaller is tighter.
An entry "nd" has no value in the source: the pair was not observed among the diploids in any replicate. This suggests poor binding but is not conclusive.
In the paper, a design with two or fewer of six values counts as a poor binder.

The variant GFDLNEYGIS | VIYADGLRTQYAESFK | GDLAGYFDS [En_Gibbs] gave nd (0 of 6 replicates; controls 0 of 18). For GFDLDEYGIS | VIYADGRRTAYADSVK | GETAGTFDQ [En_Gen], the assay gave 5.2 nM (6 of 6 replicates; controls 1 of 18). The variant GFNINEYGIS | VIYADGLRVQYIDSVK | GNASIFGVD [En_Gibbs] showed nd (0 of 6 replicates; controls 0 of 18). For GFDLNEYGIS | VIYADGSRTAYADSVK | GNVAGTFDA [En_Gen], the assay gave 76 pM (4 of 6 replicates; controls 0 of 18). The variant GFDLDQYGIS | VIYADGKRVAYTADVK | GVQGGNALV [En_Gibbs] gave nd (0 of 6 replicates; controls 0 of 18).

For GFDLNEYGIS | VIYADGSRTVYSDSVK | GQTAGTFDV [En_HC], the assay gave 7.6 nM (6 of 6 replicates; controls 0 of 18). The variant GFDLNEYGIS | VIYADGMRKYYADSVK | GEVAGTFDV [En_Gen] gave 81 pM (6 of 6 replicates; controls 0 of 18). The variant GFDINEYGIS | VIYADGMRSYYDDKVK | GSNGDLLEV [En_Gibbs] showed nd (0 of 6 replicates; controls 0 of 18). For GFDLDEYGIS | VIYADGMRTAYSDSVK | GQTAGTFDV [En_Gen], the assay gave 1.8 nM (6 of 6 replicates; controls 0 of 18). The variant GFDLNEYGIS | VIYADGRRTAYTDSVK | GHVAGTFKL [En_HC] gave 420 pM (6 of 6 replicates; controls 1 of 18).

The variant GFNIDEFGIS | VIYADGKRSSVSDSVK | GQLGNAFDL [En_Gibbs] gave nd (0 of 6 replicates; controls 0 of 18). The variant FFKLEDYGIS | VIYADGKRKAYVDNVK | GEIAGTFDV [En_Gibbs] gave 1.7 nM (6 of 6 replicates; controls 0 of 18). The variant GFNLDEVGIS | VIYADGSRVAYVQNVK | GTVDTVGFV [En_Gibbs] gave nd (0 of 6 replicates; controls 0 of 18). With GFDLDEYGIS | VIYADGMRTAYSDSVK | GQNAGTFDQ [En_Gen] the result was 340 pM (6 of 6 replicates; controls 0 of 18). For DFNLNEYGIS | VIYADGVRASYRNDVK | GQISGDFDL [En_Gibbs], the assay gave nd (0 of 6 replicates; controls 1 of 18).

For GFDLNEYGIS | VIYADGMRTAYADTVK | GNNAGTFDI [En_Gen], the assay gave 320 pM (6 of 6 replicates; controls 1 of 18). With GFDLNEYGIS | VIYADGRRTFYTDSVK | GAVAGTFDQ [En_HC] the result was 280 pM (6 of 6 replicates; controls 0 of 18). The variant GFDLNEYGIS | VIYADGRRTAYANSVK | GNVAGTFDV [En_Gen] gave 590 pM (6 of 6 replicates; controls 1 of 18). The variant GFNLDEYGIS | VIYADGRRTFYSDSVK | GEAGGTFDI [En_HC] showed 4.3 nM (6 of 6 replicates; controls 0 of 18). The variant GFDLNEYGIS | VIYADGQRTAYADSVK | GQNAGTFDT [En_Gen] gave 600 pM (6 of 6 replicates; controls 0 of 18).

With GFDLNEYGIS | VIYADGRRTAYADSVK | GENAGTFDI [En_Gen] the result was 270 pM (6 of 6 replicates; controls 0 of 18). The variant GFDLNEYGIS | VIYADGLRTFYTDSVK | GENAGTFDS [En_HC] gave nd (0 of 6 replicates; controls 0 of 18). The variant GFDLNEYGIS | VIYADGKRTFYADSVK | GNNAGTFIS [En_HC] showed 19 nM (3 of 6 replicates; controls 0 of 18). The variant GFDLNEYGIS | VIYADGRRTAYTDSVK | GTNAGTFDV [En_Gen] showed 280 pM (6 of 6 replicates; controls 0 of 18). The variant GFDLNDYGIS | VIYADGRRTFYADSVK | GELAGTFDI [En_HC] gave 350 pM (6 of 6 replicates; controls 0 of 18).

The variant GFDLNEYGIS | VIYADGRRTFYVDSVK | GKNAGTFDV [En_HC] gave 490 pM (6 of 6 replicates; controls 0 of 18). The variant GFDLNEYGIS | VIYADGMRTFYTDSVK | GNVAGTFDS [En_HC] showed 570 pM (6 of 6 replicates; controls 0 of 18). For GFDIDEYGIS | VIYADGMRTFYTDSVK | GEVAGTFDA [En_HC], the assay gave 190 pM (6 of 6 replicates; controls 0 of 18). The variant GFDLNEYGIS | VIYADGVRTSYDDSVK | GQLAGTFDQ [En_HC] showed 370 pM (6 of 6 replicates; controls 0 of 18). With GFDLNEYGIS | VIYADGRRTFYSDSVK | GEIAGTFNV [En_HC] the result was 180 pM (6 of 6 replicates; controls 0 of 18).

The variant GFELQEYGIS | VIYADGIRTNYSQNVK | GTLAGTFTQ [En_Gibbs] gave 17 nM (2 of 6 replicates; controls 0 of 18). The variant GFDLQEYGIS | VIYADGERKAYADKVK | GTHGGTRDI [En_Gibbs] showed nd (0 of 6 replicates; controls 0 of 18). With GFNLEDYGIS | VIYADGRRTFYADSVK | GEVAGTFDV [En_HC] the result was 4.7 nM (4 of 6 replicates; controls 0 of 18). For GYDLVEYGIS | VIYADGQRTAYADDVK | GNHGGTIDV [En_Gibbs], the assay gave nd (0 of 6 replicates; controls 2 of 18). With GFDLNEYGIS | VIYADGRRTFYSDSVK | GEAAGTFNM [En_HC] the result was 200 pM (6 of 6 replicates; controls 0 of 18).

For GFDLNEYGIS | VIYADGRRTFYADSVK | GENAGTFTL [En_HC], the assay gave 200 pM (6 of 6 replicates; controls 0 of 18). With GFDLDEYGIS | VIYADGRRTAYADSVK | GEAAGTFDI [En_HC] the result was 590 pM (6 of 6 replicates; controls 0 of 18). With GFDLNEYGIS | VIYADGVRTAYTDSVK | GETAGTFDV [En_Gen] the result was 400 pM (6 of 6 replicates; controls 1 of 18). The variant GFDLNEYGIS | VIYADGKRTVYADSVK | GQNAGTFDV [En_Gen] showed 540 pM (6 of 6 replicates; controls 1 of 18). For GFNLDEYGIS | VIYADGRRTFYADSVK | GQVAGTFLM [En_HC], the assay gave 420 pM (6 of 6 replicates; controls 0 of 18).

For GFDLNEYGIS | VIYADGRRTFYVDSVK | GQVAGTFNV [En_HC], the assay gave 210 pM (6 of 6 replicates; controls 1 of 18). For GFNLNEYGIS | VIYADGMRTFYTDSVK | GENAGTFDE [En_HC], the assay gave 670 pM (6 of 6 replicates; controls 0 of 18). With GFDINEYGIS | VIYADGMRTGYQNQVK | GYMSGGLNQ [En_Gibbs] the result was nd (0 of 6 replicates; controls 0 of 18). The variant GFDLNEYGIS | VIYADGMRKAYADSVK | GEVAGTFDV [En_Gen] showed 490 pM (6 of 6 replicates; controls 1 of 18). The variant GFNLDEYGIS | VIYADGVRTFYADSVK | GQVAGTFDV [En_HC] gave 220 pM (6 of 6 replicates; controls 0 of 18).

The variant GFDLNEYGIS | VIYADGKRTQYIDSVK | GEQAGTFDV [En_HC] showed 1.6 nM (6 of 6 replicates; controls 0 of 18). The variant GFDLDEYGIS | VIYADGRRTAYANSVK | GNVAGTFDV [En_Gen] gave 200 pM (6 of 6 replicates; controls 0 of 18). With GFDINEYGIS | VIYADGQRTFYADSVK | GNQAGTFDL [En_HC] the result was 220 pM (6 of 6 replicates; controls 0 of 18). For GFDLNEYGIS | VIYADGRRQMYANPVK | GHMGGIKLT [En_Gibbs], the assay gave 63 nM (3 of 6 replicates; controls 1 of 18). The variant GFDLDKYGIS | VIYADGKRVAYTDDVK | GVTGGMALV [En_Gibbs] gave 25 nM (1 of 6 replicates; controls 2 of 18).

For GFDLNEYGIS | VIYADGRRTFYADSVK | GQTAGTFDI [En_HC], the assay gave 2.0 nM (6 of 6 replicates; controls 0 of 18).

5 of these entries, quoted again:

The variant GFDLNEYGIS | VIYADGRRQMYANPVK | GHMGGIKLT [En_Gibbs] showed 63 nM (3 of 6 replicates; controls 1 of 18).
The variant GFNLEDYGIS | VIYADGRRTFYADSVK | GEVAGTFDV [En_HC] showed 4.7 nM (4 of 6 replicates; controls 0 of 18).
The variant GFDLDEYGIS | VIYADGRRTAYADSVK | GETAGTFDQ [En_Gen] showed 5.2 nM (6 of 6 replicates; controls 1 of 18).
The variant DFNLNEYGIS | VIYADGVRASYRNDVK | GQISGDFDL [En_Gibbs] showed nd (0 of 6 replicates; controls 1 of 18).
The variant GFDIDEYGIS | VIYADGMRTFYTDSVK | GEVAGTFDA [En_HC] showed 190 pM (6 of 6 replicates; controls 0 of 18).

Three control strains display no target. For all heavy chain designs, 1% of the pairings with them gave a signal, with a median of 120 nM and one signal in twenty below 7.0 nM, so weak values seen in few replicates may be background. For each scFv, signals with the empty controls are counted beside the result.
The range of this assay differs from that of the first round, and the authors advise against merging the two.
Of ten entries with the parent sequence, four were seen in most replicates (averages 2.2 nM to 240 nM), three in one and three in none, so single entries are noisy.